pEC50: −log10 of the molar value.
Columns and labels:
μ-opioid receptor [1] = target: T1, μ-opioid receptor (Homo sapiens, UniProt P35372); assay: [35S]GTPγS functional assay, μ-opioid receptor, HEK-293 cells; conditions: for μ Emax (%): maximal effect relative to DAMGO, Table 1; for pEC50: read-out: μ EC50, μ GTP EC50, Table 1
μ-opioid receptor [2] = target: T1, μ-opioid receptor; assay: [35S]GTPγS functional assay, μ-opioid receptor, U-2 OS cells
κ-opioid receptor = κ-opioid receptor (Homo sapiens, UniProt P41145); assay: [35S]GTPγS functional assay, κ-opioid receptor, U-2 OS cells

The chains behind the UniProt entries cited, without tags or fusion partners.
UniProt P35372, whole entry: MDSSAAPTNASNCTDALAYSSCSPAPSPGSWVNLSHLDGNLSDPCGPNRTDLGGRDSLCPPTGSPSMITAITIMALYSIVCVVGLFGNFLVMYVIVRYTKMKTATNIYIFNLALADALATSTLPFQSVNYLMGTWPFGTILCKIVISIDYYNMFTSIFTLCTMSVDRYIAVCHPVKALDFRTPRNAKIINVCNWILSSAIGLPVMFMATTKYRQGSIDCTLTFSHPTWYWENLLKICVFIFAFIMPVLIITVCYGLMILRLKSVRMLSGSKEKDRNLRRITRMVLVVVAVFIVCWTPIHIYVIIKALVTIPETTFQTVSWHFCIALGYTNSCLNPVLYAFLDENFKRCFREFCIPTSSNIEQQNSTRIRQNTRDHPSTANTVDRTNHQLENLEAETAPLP
UniProt P41145, whole entry: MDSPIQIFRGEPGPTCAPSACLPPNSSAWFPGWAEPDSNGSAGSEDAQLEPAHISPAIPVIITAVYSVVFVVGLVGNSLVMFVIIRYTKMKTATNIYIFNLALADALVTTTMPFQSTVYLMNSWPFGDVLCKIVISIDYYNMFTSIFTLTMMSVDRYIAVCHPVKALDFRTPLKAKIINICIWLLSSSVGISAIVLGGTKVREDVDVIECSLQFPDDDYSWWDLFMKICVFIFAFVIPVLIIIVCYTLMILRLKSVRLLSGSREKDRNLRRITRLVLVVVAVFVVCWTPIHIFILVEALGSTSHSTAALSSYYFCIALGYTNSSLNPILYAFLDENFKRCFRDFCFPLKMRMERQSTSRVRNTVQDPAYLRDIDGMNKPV

SMILES	μ Emax (%) (μ-opioid receptor [1])	pEC50 (μ-opioid receptor [1])	μ Emax (%) (μ-opioid receptor [2]; maximal effect relative to DAMGO, Table 2)	pEC50 (μ-opioid receptor [2]; read-out: μ EC50, μ GTP EC50, Table 2)	κ Emax (%) (κ-opioid receptor; maximal effect relative to U69,593, Table 2)	pEC50 (κ-opioid receptor; read-out: κ EC50, κ GTP EC50, Table 2)
CO[C@]12CC[C@@]3(C[C@H]1CN(C)Cc1ccccc1)[C@H]1Cc4ccc(O)c5c4[C@@]3(CCN1CC1CC1)[C@H]2O5	20.4 ± 1.12	9.64				
COc1ccc2c3c1OC1[C@@]4(OC)CC[C@@]5(C[C@H]4CNCc4ccccc4)[C@@H](C2)N(CC2CC2)CC[C@]315 (stereo partly shown)	98.0 ± 6.03	8.38				
CO[C@]12CC[C@@]3(C[C@H]1COCc1ccoc1)[C@H]1Cc4ccc(O)c5c4[C@@]3(CCN1CC1CC1)[C@H]2O5	15.0 ± 4.04	9.68				
COc1ccc2c3c1O[C@H]1[C@@]4(OC)CC[C@@]5(C[C@H]4CN(C)Cc4ccccc4)[C@@H](C2)N(CC2CC2)CC[C@]315	26.0 ± 2.65	8.19				
COc1ccc2c3c1O[C@H]1[C@@]4(OC)CC[C@@]5(C[C@H]4COCc4ccccc4)[C@@H](C2)N(CC2CC2)CC[C@]315	15.5 ± 0.65	8.27	75.2 ± 2.39	9.30	89.0 ± 3.51	10.42
COc1ccc2c3c1O[C@H]1[C@@]4(OC)CC[C@@]5(C[C@H]4COCc4ccoc4)[C@@H](C2)N(CC2CC2)CC[C@]315	19.0 ± 1.14	8.60				

Source: patent US20160333020A1, “7-BETA ANALOGS OF ORVINOLS” (published 2016)
